Literature values as cited in patent US20160160213A1, “METHODS OF TREATING CANCER AND PREVENTING CANCER DRUG RESISTANCE” (Genentech, Inc., priority 2013, published 2016).

By UniProt entry, the sequences of proteins in these tests, tags left out.
UniProt Q15910, whole entry: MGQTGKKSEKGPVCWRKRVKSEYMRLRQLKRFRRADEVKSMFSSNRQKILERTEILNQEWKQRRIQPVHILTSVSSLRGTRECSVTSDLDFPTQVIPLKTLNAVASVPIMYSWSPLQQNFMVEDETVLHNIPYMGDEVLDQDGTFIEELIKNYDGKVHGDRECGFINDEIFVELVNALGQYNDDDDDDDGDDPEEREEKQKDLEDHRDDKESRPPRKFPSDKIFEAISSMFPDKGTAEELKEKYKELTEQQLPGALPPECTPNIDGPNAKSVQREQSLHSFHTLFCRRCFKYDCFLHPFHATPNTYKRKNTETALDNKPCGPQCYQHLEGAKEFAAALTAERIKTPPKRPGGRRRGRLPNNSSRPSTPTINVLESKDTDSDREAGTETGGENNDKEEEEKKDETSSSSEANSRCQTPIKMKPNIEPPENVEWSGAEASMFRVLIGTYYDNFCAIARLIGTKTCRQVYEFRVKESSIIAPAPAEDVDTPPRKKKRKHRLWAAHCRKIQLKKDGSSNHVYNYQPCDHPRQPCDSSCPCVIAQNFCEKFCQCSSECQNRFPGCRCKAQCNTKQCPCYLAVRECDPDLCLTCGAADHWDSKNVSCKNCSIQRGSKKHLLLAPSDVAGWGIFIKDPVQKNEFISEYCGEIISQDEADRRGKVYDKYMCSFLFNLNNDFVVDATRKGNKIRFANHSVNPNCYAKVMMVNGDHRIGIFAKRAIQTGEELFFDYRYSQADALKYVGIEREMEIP
UniProt Q09028, whole entry partner: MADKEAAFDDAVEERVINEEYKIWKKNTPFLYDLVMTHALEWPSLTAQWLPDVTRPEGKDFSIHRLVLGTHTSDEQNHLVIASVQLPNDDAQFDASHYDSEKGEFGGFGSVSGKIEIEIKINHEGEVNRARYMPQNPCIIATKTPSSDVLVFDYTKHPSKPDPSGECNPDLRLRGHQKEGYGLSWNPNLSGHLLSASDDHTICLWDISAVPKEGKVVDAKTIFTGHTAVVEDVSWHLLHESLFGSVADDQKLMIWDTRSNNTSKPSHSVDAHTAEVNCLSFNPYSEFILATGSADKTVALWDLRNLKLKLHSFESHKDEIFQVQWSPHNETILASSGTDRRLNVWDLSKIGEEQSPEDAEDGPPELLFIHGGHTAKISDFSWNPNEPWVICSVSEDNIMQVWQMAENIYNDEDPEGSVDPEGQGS
UniProt O75530, whole entry partner: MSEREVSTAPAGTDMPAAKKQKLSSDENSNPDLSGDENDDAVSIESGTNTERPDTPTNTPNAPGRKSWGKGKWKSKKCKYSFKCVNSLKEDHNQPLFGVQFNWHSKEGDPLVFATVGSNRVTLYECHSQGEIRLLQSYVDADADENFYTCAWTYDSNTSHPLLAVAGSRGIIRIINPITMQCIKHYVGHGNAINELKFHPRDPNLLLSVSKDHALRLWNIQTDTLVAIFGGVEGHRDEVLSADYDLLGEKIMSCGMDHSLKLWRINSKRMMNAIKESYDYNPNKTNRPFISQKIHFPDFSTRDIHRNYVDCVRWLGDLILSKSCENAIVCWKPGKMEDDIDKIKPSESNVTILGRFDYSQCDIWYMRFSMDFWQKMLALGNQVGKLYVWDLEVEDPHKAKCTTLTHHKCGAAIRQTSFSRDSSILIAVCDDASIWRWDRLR
UniProt Q15022, whole entry partner: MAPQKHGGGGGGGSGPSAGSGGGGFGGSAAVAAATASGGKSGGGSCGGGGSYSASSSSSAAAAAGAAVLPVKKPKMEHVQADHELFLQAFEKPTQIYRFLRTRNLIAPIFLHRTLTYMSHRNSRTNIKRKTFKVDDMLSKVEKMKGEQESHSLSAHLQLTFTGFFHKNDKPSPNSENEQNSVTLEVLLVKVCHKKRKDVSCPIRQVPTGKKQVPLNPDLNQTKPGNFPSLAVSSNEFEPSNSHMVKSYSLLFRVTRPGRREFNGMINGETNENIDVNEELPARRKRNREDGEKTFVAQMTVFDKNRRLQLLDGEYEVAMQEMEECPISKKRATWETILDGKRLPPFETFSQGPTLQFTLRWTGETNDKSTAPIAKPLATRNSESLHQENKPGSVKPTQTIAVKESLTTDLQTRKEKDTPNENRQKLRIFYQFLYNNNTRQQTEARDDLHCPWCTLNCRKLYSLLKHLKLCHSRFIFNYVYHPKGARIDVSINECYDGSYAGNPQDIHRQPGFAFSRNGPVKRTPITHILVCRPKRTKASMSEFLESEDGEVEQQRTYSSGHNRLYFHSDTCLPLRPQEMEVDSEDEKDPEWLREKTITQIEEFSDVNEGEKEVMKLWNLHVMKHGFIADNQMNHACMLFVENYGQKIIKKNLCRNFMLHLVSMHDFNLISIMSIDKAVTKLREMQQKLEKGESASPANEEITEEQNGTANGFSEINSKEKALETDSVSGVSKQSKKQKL

Target: EZH2 (Homo sapiens, UniProt Q15910)
Conditions: read-out: EZH2 Ki^app; cited from earlier work

Cc1cc(C)c(CNC(=O)c2cc(-c3ccc(N4CCN(C)CC4)nc3)cc3c2cnn3C(C)C)c(=O)[nH]1
Ki: 7.9 nM
